Assay [1] deals with Calcineurin (CNA residues 1-370 bound to CNB residues 1-169) (human) (UniProt Q08209). Briefly: ITC; NFAT peptides, PALB2 or SYDE2 titrated into calcineurin in the cell; 25 °C; 20 mM Tris pH 7.5, 100 mM NaCl, 1.0 mM CaCl2, 0.5 mM TCEP; one set of sites model with n=1; averages of >=3 experiments (SYDE2: 2). (In general: ITC needs no label: the signal is the heat of the interaction.)

In assay [2] the target is Calcineurin (CN; CNA residues 1-370 / CNB residues 1-169), His6 tag cleaved (human) (UniProt Q08209). Nature of the assay: crystal structure; CN:NFATc1 LxVP complex, 2.6 Å, hanging drop, 0.1 M HEPES pH 7.0, 15% PEG4000, 25 °C; molecular replacement with PDB 4F0Z.
For assay [3] the target is unchanged. Nature of the assay: ITC; VP-ITC, 25 °C; 20 mM Tris pH 7.5, 100 mM NaCl, 1.0 mM CaCl2, 0.5 mM TCEP; NFAT peptides, PALB2 and SYDE2 titrated into CN in the cell; one set of sites model.
In another assay the target is CNA_(1-348) (human) (UniProt Q08209). The description is as above.

Turning to “SYDE2 (synapse defective protein 1 homolog 2) residues 232-289 (from UniProt Q5VT97 232-289) (domain or fragment)”, in assay [1], the dissociation constant Kd came out at 2600 nM.

As to “PALB2 (partner and localizer of BRCA2) fragment (from UniProt Q86YC2 178-295) (domain or fragment)”, the Kd in assay [1] came out at 3100 nM.

With NFATc1 LxVP peptide 383-400, in assay [2], the stoichiometry N came to 1. The dissociation constant (Kd) in assay [3] was 1800 nM.

In the case of DDQYLAVPQHPYQWAKPK [NFATc1 LxVP peptide 383-400], in the assay with CNA_(1-348) (human), the fold weaker binding than to CNA/B came out at 2 fold.

A word on the Kd: it is the concentration at which binding is half-saturated. By stoichiometry N is commonly meant the number of molecules, sites or subunits per partner or assembly.

Values taken from paper PMC5156906.
